Reference: patent US11647993B2, “Oral fluid collector” (Research Triangle Institute, priority 2017, dated 2023)

Experiment: Stability of parent THC spiked into neat human oral fluid, with or without the reagent component
Format: physicochemical
Conditions: neat human oral fluid modified with the reagent component, 2-week period

**Q.** Which “stability of parent THC” value does the source give for CCCCCc1cc(O)c2c(c1)OC(C)(C)[C@@H]1CCC(C)=C[C@@H]21 [THC, Δ^9-tetrahydrocannabinol] here?
**A.** Its value is “stable”.
